According to article PMC5943355:

Target: Na+,HCO3- co-transporter NBCn1 (SLC4A7), native in MCF-7 cells (human (endogenous in MCF-7)) (UniProt Q9Y6M7)
Assay: proximity ligation; in situ PLA (Duolink II) with primary antibodies against NBCn1 and RACK1 in fixed non-confluent (60-70% confluency) MDCK-II or MCF-7 cells; control with only NBCn1 antibody

PLA signal, fold above the control with only NBCn1 antibody: 8 fold
Substance: Receptor for Activated C Kinase-1 (RACK1), endogenous in MCF-7 cells (from UniProt P63244 1-317) (natural protein)
